This is a selection; strong and weak results do not stand in their true shares. Some of these compounds have results that are not shown, active ones among them. Results filed as inconclusive are left out. Activity calls are given as the source filed them. Calls follow the shape of the dose curve; as a rule, active = well fitted activation curve with a large enough effect in the signal ratio, with a control signal flat (not every such curve was filed as active); inconclusive = small, poorly fitted or top-dose-only effect, or effect the other way, or a change in a side signal; inactive = flat fitted curve, though single readings scatter; the % refers to the signal ratio.

This test can be described thus: Cell signaling CRE-BLA (Fsk stim). Also: % of control where 0% means no effect. As to conditions: CHO CRE-bla reporter (cAMP response element driving beta-lactamase), forskolin EC10, beta-lactamase ratio; at 7.6 µM unless noted. From the text:
NIH Molecular Libraries Screening Centers Network [MLSCN]
NIH Chemical Genomics Center [NCGC]
Assay Provider: Marshall W. Nirenberg, U.S. National heart lung & blood institute
Memories persist for different lengths of time, from seconds or minutes to a lifetime. There are two kinds of memory: short-term memory (STM) and long-term memory (LTM). STM lasts for minutes to hours, which maybe mediated by modifications of molecules involved in synaptic functions. LTM lasts for days or longer, and may be due to the formation of new synapses or restructuring of existing synapses. LTM, but not STM, requires gene transcription and synthesis of proteins. CREB (cyclic-AMP Responsive Element Binding Protein) is one of the candidates plays an important role for enhancement of some types of LTM. CREB, a family of transcription factors, regulates the transcription of genes containing cAMP Responsive Elements (CRE). CRE is a nucleotide sequence often found in the promoter regions of genes that are binding sites for CREB.
Using a beta-lactamase reporter-gene under control of cAMP responsive element, a cell-based assay [CellSensor(TM) CRE-bla CHO developed by Invitrogen Corp.] was used to measure forskolin-induced signaling. Library compounds were measured for their ability to modulate positively or negatively the action of EC10 NKH 477, a water soluble forskolin, on reporter gene activity. Compounds were screened in a titration series in 1536-well format. Positive and negative modulators were identified based on the AC50 values derived from the screening data.
NCGC Assay Protocol Summary
2000 cells/5uL in Opti-MEM medium containing 0.5% dialyzed FBS, 0.1 mM NEAA, 1 mM sodium pyruvate and 10 mM HEPES was dispensed into 1536-well plates and cells were cultured at 37 degrees Celsius overnight. […] And then the plates were incubated at 37 degrees Celsius for 3 hours. 1 uL of CCF4-dye mixture was added to each well. After incubated at room temperature for 2 hours the plates were measured on an EnVision plate reader at Excitation 405nm, Emission1=460nm and Emission 2=530nm. The %Activity was determined from the ratio of 460nm/530nm.
Keywords: NIH Roadmap, MLSCN, MLSMR, qHTS, NCGC, CRE, beta-lactamase reporter-gene assay.
Regarding `C=C(C)C#C[C@@](O)(C(=O)OC1CCN(C)CC1)c1ccccc1`, the activity change, negative = inhibition is inactive: -2.81%.

`CN1CCC[C@H](OC(=O)[C@](O)(c2ccccc2)C2CCCC2)C1`: the activity change, negative = inhibition is inactive: -7.7%.

Turning to `O=C(OC1CN2CCC1CC2)C(CO)(c1ccccc1)c1ccccc1` (stereo not given), the activity change, negative = inhibition is inactive: 0.884% [at 38.2 µM].

For `CN1CC[C@H](OC(=O)[C@](O)(c2ccccc2)C2CCCC2)C1`, the activity change, negative = inhibition is inactive: -3.66%.

With `CN(C)c1cccc(C(=O)NCC2(N(C)C)CCCCC2)c1`, the activity change, negative = inhibition is inactive: -2.09% [at 38.2 µM].

These data come from PubChem BioAssay AID662 (National Center for Advancing Translational Sciences (NCATS), 2007).
